Molecular target: T1, hOCT3 (Homo sapiens, UniProt O75751)
T1 sequence (O75751 1-556): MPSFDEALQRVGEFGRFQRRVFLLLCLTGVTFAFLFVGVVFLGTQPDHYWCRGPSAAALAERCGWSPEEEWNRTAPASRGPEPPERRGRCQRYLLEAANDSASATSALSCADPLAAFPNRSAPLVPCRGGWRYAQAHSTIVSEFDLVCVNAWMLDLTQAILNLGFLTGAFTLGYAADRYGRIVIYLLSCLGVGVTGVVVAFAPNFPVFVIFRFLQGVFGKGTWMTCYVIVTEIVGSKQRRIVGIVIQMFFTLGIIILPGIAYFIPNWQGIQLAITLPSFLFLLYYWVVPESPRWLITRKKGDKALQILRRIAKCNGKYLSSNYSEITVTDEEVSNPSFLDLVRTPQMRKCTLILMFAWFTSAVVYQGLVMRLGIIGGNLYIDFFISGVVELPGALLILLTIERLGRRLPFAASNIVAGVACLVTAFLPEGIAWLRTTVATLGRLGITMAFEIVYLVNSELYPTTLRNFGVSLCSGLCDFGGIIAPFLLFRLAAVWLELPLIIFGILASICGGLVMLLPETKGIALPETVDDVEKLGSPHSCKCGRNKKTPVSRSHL
Test: Inhibition of ASP+ uptake in hOCT3-HEK293 cells (apparent affinity)
Assay type: cell-based
Design: expressed in transfected cells; host or cells: HEK293
Conditions: hOCT3-HEK293, ASP+ 1 µM
Experimental: Apparent affinities of hOCT1, hOCT2, hOCT3, and hOCTN1 for saracatinib were determined in transfected HEK293 cells by inhibiting the uptake of the known OCT substrate ASP^+ (1 μM) with saracatinib (10^−10 to 10^−3 M) as described elsewhere.

IC50: 50 µM
SMILES: CN1CCN(CCOc2cc(OC3CCOCC3)c3c(Nc4c(Cl)ccc5c4OCO5)ncnc3c2)CC1 [saracatinib, N-(5-chloro-1,3-benzodioxol-4-yl)-7-[2-(4-methylpiperazin-1-yl)ethoxy]-5-(tetrahydro-2H-pyran-4-yloxy)quinazolin-4-amine]
